Reference: article PMC11738990

Tested on: healthy subjects
Experiment: Phase I New Zealand safety
Conditions: two phase I studies, healthy volunteers

In the case of CC(C)n1cnc(-c2ccc(F)cc2)c1-c1ncc(C(=O)Nc2ccc(N3CCN(C)CC3)cc2)[nH]1, the safety and tolerability was “safe and well tolerated”.
